For six molecules, activation results are on record in PubChem BioAssay AID528 (NMMLSC, 2006).

Chains of the proteins cited; added tags and fusions are not shown.
UniProt P13612, whole entry, looked up: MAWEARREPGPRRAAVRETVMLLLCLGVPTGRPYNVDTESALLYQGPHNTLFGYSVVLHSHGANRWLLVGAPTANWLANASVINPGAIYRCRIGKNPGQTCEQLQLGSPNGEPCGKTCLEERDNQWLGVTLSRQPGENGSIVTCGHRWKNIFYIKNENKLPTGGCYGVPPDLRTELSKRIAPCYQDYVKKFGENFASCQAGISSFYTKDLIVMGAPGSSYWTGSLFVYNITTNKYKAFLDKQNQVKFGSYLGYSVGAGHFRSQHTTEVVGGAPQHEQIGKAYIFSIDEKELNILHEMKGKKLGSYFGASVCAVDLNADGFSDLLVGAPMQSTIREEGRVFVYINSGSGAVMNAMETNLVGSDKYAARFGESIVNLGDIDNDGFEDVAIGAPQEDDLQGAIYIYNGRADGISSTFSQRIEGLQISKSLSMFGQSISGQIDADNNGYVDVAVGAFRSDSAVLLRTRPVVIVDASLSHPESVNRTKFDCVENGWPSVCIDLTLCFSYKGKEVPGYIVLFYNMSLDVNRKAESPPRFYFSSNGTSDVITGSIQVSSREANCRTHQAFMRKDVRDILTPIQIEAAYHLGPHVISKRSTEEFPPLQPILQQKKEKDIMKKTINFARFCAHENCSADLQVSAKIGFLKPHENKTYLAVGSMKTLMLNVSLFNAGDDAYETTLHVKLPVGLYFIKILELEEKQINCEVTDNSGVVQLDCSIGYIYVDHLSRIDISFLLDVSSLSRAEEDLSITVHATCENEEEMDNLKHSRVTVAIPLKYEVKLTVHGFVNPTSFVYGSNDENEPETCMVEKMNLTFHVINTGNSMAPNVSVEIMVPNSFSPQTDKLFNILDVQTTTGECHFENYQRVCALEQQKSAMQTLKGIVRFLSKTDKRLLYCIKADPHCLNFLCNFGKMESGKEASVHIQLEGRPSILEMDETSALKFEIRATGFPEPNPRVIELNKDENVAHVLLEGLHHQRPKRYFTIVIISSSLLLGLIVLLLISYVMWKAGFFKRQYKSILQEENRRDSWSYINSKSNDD

This is a selection; strong and weak results do not stand in their true shares. Records with an inconclusive call do not appear. The source made the active and inactive calls.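 How the source made its calls: active means fluorescent ligand binding to cells raised by more than 40% of the manganese-induced maximum; inconclusive means compound's own fluorescence above 85% of the ligand control signal; inactive means the rest.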

The target of the assay is Integrin alpha-4 (Homo sapiens) (UniProt P13612). The assay can be described thus: enhancers of LDV-FITC binding to VLA-4 integrin, primary screen, Jurkat cells, flow cytometry (AID 528).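 Further: 0% = ligand binding without compound and 100% = manganese-stimulated maximal binding.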 To be noted: hits give high values, screened at 10 µM (by protocol).
As to `O=P(Nc1nccs1)(c1ccccc1)c1ccccc1`, the activation was inactive: -2%.
Consider `COP1(=S)c2c(C)nn(CCC#N)c2N=C(c2ccc(F)cc2)N1C` (stereo unspecified), for which the activation is inactive: 0%.
In the case of `O=C(COc1ccccc1)OC1CN2CCC1CC2` (stereo unspecified), the activation was inactive: 2.5%.
For the molecule `Clc1n[nH]nc1-c1nn[nH][15n]1`, the activation is inactive: -7%.
Take `Cc1nn(-c2ccccc2)c2c1P(=O)(N1CCOCC1)N(C)C(c1ccccc1)=N2` (stereo unspecified): the activation was inactive: -4.5%.
The result for `CCOP1(=S)c2c(C)nn(CCC#N)c2N=C(c2ccccc2F)N1C` (stereo unspecified) reads inactive: 9%.
